Assay [1] has as its target human glucagon-like peptide 1 receptor (human) (UniProt P43220). The assay can be described thus: cell-based or functional assay.
Assay [2] addresses human glucagon receptor (human) (UniProt P47871). In words: cell-based or functional assay.

The substance “Exendin-4 (from UniProt P26349) (peptide)” showed an EC50 of cAMP formation, HEK293 cells expressing human GLP-1R in assay [1] of 0.02 nM. The same substance yielded an EC50 of cAMP formation, HEK293 cells expressing human Glucagon-R in assay [2] greater than 1000 nM.

The values are drawn from patent publication US20140127175A1 (ZEALAND PHARMA A S, published 2014).
